The values that follow come from PubChem BioAssay.

Sequences of proteins named here, by UniProt entry; tags and fusion partners are left off. A change or cut given only in a name is not applied to a line headed by its entry.
UniProt O15520: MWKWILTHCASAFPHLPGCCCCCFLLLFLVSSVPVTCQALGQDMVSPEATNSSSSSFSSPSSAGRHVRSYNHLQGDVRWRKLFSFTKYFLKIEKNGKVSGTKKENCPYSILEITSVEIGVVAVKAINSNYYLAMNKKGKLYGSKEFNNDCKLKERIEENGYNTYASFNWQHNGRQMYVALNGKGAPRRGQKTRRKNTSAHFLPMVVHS
UniProt O95633: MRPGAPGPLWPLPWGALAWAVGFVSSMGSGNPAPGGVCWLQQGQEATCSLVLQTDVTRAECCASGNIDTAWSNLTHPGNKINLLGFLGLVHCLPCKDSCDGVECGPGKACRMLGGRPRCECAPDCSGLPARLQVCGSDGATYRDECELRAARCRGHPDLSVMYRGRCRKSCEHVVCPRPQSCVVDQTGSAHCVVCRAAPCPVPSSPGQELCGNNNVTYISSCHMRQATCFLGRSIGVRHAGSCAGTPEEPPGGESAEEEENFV
UniProt O94907: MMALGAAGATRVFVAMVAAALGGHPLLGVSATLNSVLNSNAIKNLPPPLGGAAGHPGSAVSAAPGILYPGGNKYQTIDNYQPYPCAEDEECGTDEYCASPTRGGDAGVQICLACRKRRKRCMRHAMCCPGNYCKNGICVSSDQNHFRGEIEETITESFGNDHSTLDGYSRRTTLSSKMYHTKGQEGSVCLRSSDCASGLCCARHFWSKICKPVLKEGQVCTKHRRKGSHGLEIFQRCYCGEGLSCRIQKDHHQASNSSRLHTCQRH
UniProt O00292: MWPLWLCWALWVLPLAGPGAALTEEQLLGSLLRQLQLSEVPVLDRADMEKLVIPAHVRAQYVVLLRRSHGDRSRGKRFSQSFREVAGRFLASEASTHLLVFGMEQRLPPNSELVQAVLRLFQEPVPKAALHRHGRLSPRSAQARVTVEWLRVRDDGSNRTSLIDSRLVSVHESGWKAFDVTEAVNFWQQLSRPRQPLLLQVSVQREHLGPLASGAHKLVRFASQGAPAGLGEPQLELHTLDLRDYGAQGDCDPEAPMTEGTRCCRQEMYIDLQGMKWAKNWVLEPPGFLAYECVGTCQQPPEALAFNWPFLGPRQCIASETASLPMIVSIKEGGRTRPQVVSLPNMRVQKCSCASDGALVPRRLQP
UniProt Q5JTV8: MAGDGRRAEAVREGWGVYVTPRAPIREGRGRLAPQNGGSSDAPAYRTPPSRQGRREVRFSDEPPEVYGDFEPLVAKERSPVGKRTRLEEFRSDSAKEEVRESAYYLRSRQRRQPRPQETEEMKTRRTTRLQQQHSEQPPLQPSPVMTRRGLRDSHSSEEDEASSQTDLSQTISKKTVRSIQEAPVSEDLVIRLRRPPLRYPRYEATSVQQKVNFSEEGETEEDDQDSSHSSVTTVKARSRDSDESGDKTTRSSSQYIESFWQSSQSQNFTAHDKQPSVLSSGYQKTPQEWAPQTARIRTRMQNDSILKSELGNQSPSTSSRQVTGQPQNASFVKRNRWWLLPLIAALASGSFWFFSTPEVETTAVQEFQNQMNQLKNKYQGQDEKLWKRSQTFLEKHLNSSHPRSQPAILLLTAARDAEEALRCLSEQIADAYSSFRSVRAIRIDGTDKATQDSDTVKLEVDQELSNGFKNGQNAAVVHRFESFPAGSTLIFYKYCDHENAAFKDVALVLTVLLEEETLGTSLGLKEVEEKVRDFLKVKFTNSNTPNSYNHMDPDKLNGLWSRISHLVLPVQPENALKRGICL
UniProt P02769, whole entry, looked up: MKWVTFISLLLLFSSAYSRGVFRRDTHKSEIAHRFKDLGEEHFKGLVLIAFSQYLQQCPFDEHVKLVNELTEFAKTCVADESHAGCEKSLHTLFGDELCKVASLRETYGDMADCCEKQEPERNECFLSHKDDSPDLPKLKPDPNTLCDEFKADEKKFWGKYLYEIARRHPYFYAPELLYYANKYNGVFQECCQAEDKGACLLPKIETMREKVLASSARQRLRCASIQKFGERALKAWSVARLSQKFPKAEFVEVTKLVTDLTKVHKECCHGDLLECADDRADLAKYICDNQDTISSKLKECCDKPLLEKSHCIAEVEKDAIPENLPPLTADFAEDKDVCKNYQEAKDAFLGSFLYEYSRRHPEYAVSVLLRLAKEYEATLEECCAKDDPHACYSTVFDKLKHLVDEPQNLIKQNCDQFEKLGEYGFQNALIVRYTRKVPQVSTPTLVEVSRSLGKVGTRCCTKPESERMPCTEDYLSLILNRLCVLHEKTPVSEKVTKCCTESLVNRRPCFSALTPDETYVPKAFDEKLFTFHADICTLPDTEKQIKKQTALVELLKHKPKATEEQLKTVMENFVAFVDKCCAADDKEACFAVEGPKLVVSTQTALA

The list shows a part of the results, in another mix than the full data. Calls of active or inactive are those of the source.

Test [1] has as its target Fibroblast growth factor 10 (Homo sapiens) (UniProt O15520). Put plainly: FGF10 binders on small-molecule microarrays, primary screen, biochemical, small-molecule microarray, 635 nm fluorescence (AID 1102). Particulars: FGF10 binding, fluorescence 635 nm, higher = more signal.
Test [2] relates to glycogen synthase kinase-3 (GSK3A per assay name; protocol says GSK3B). The test can be described thus: GSK3 binders on small-molecule microarrays, primary screen, biochemical, small-molecule microarray, 635 nm fluorescence, GSK3A (AID 1103). Also: the record names both GSK3A and GSK3B. Particulars: small-molecule microarray binding, fluorescence 635 nm; higher = more signal.
Test [3] addresses Epidermal growth factor receptor (Homo sapiens) (UniProt P00533). Put plainly: EGFR binders on small-molecule microarrays, primary screen, biochemical, small-molecule microarray, 635 nm fluorescence (AID 1104).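 Also: score merges 667 nm emission intensity with spot signal to noise over triplicate slides.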 Particulars: EGFR binding, higher = more signal.
Test [4] addresses Follistatin-related protein 3 (Homo sapiens) (UniProt O95633). The test can be described thus: FSTL3 binders on small-molecule microarrays, primary screen, biochemical, small-molecule microarray, 635 nm fluorescence (AID 1105).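 Also: score merges emission near 667 nm and signal to noise per printed spot across three slides.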 Particulars: FSTL3 binding, higher = more signal.
The target in test [5] is Dickkopf-related protein 1 (Homo sapiens) (UniProt O94907). Put plainly: DKK1 binders on small-molecule microarrays, primary screen, biochemical, small-molecule microarray, 635 nm fluorescence scan (AID 1106).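 Also: score merges emission near 667 nm with signal to noise over three replicate slides.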 Particulars: DKK1 binding, higher = more signal.
In test [6] the test system is Inhibin beta A chain (activin A). The test can be described thus: INHBA (activin A) binders on microarrays, primary screen, biochemical, small-molecule microarray, 635 nm fluorescence scan (AID 1107).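 Also: mouse activin A protein probed at 4.33 µg/mL on printed slides; score merges bound-protein fluorescence near 667 nm with spot signal-to-noise.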 Particulars: small-molecule microarray binding, higher = more signal.
A short description of test [7]: modulators of HCV replicon luciferase signal, primary screen, HCV replication inhibitor project, Huh7 cells, luciferase reporter (AID 1109).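 Also: huh7 hepatoma cells harbouring a luciferase neomycin HCV replicon reporter; luciferase luminescence as measure of HCV replicon replication; test concentration not given here.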 Particulars: 48 h, higher = more signal. For orientation: A replicon is a self-replicating genome or part of one, used to study replication in cells.
Test [8] deals with Left-right determination factor 2 (Homo sapiens) (UniProt O00292). Put plainly: LEFTY2 binders on small-molecule microarrays, primary screen, biochemical, small-molecule microarray, 635 nm fluorescence scan (AID 1110). Particulars: LEFTY2 binding, higher = more signal.
The target in test [9] is Calmodulin-1 (Homo sapiens) (UniProt P0DP23). The test can be described thus: CALM1 binders on microarrays, EGTA buffer, profiling panel, biochemical, small-molecule microarray, Cy5-labelled CALM1 (AID 1111).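 Also: labelled calmodulin applied in Tris saline Tween buffer holding calcium plus EGTA and DTT.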 Particulars: Cy5-CALM1 binding fluorescence, higher = more signal.
Test [10] has the same target. Put plainly: calcium-bound CALM1 binders on microarrays, profiling panel, artefact control for SMM control-protein annotation, biochemical, small-molecule microarray, Cy5-labelled CALM1, plus calcium (AID 1112).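 Also: score merges spot fluorescence with signal to noise from triplicate slides.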 Particulars: Cy5-CALM1 binding fluorescence, higher = more signal.
Test [11] is described as follows: small-molecule microarray binders of probe aWnt5a, primary screen, biochemical, biotinylated probe, 635/667 nm fluorescence (AID 1113).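 Also: score merges 667 nm fluorescence intensity with signal-to-noise per printed feature.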 Particulars: higher = more signal.
Test [12] in a line: small-molecule microarray binders of probe aShh, primary screen, biochemical, biotinylated probe, 635/667 nm fluorescence (AID 1114).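 Also: probe is biotin-labelled aShh protein from a stem cell growth factor screen; measures binding of labelled protein to compounds printed on the slide; score merges feature fluorescence at 667 nm with signal-to-noise.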 Particulars: higher = more signal.
Test [13] is described as follows: small-molecule microarray binders of probe aNog, primary screen, biochemical, biotinylated probe, 635/667 nm fluorescence (AID 1115).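 Also: probe is biotinylated aNog protein used at 0.15 µg/mL for 1 h at 4 C; z-score combines 667 nm fluorescence of each spot with its signal to noise.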 Particulars: higher = more signal.
Test [14] concerns the target Torsin-1A-interacting protein 1 (Homo sapiens) (UniProt Q5JTV8). Put plainly: LAP1 binders from COS7 cell lysate, primary screen, small-molecule microarray, 635/667 nm fluorescence (AID 1116). Particulars: COS7-hLAP1 lysate binding, 635 nm fluorescence, higher = more signal.
In test [15] the target is Albumin (Bos taurus) (UniProt P02769). The test can be described thus: bovine serum albumin binders on microarray, profiling panel, artefact control for SMM control protein annotation, biochemical, small-molecule microarray, Alexa647 label, 635/667 nm fluorescence (AID 1118).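 Also: score merges 667 nm emission intensity and signal-to-noise per printed compound spot.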 Particulars: BSA-A647 binding, fluorescence 635 nm, higher = more signal.
The nature of test [16]: small-molecule microarray binders of probe aXIP, primary screen, biochemical, NeuroSMM set, 635/667 nm fluorescence (AID 1119).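 Also: probe is the protein aXip251-270 applied at 1 µg/mL to compound-printed slides; binding of probe to printed compounds measured as 667 nm fluorescence plus signal to noise.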 Particulars: higher = more signal, called active from +8 up or from −8 down.
A short description of test [17]: small-molecule binders of probe aNOTCH3, primary screen, biochemical, small-molecule microarray, 635/667 nm fluorescence (AID 1120).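 Also: probe is a biotin-tagged antibody raised against NOTCH3 rather than NOTCH3 protein; score merges spot fluorescence near 667 nm with spot signal to noise.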 Particulars: higher = more signal.
A short description of test [18]: small-molecule binders of probe aNOTCH2, primary screen, biochemical, small-molecule microarray, 635/667 nm fluorescence (AID 1121).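 Also: score merges feature fluorescence read at 667 nm with its signal to noise.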 Particulars: higher = more signal.
For test [19], the target named is Carbonic anhydrase 2 (Homo sapiens) (UniProt P00918). Put plainly: CAII small-molecule binders, profiling panel, biochemical, small-molecule microarray, Alexa647-labelled CAII (AID 1122). Particulars: CAII-A647 binding fluorescence, higher = more signal.
Test [20] in a line: COS7 lysate on small-molecule microarray, probe aHis, 635 nm (AID 1123).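 Also: z-score combines 667nm fluorescence intensity with signal-to-noise per printed compound spot.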 Particulars: COS7 cell lysate, fluorescence, higher = more signal.

`COP(=O)(/N=C1/CC(c2ccc(CO)cc2)=CC(C2CC2)N1C)OC` (stereo not given): the composite z-score was 0.852 in test [1]; 0.386 in test [2]; -0.0986 in test [3]; 0.682 in [4]; 0.424 in [5]; 1.33 in [6]. Also, the composite z-score was 0.145 in test [8]; 1.24 in test [9]; -0.017 in test [10]; -0.0607 in [11]; 0.0611 in test [12]; -0.207 in test [13]. The composite z-score in [14] is 0.254; in test [15], 0.479; in [17], 0.485; in [18], -0.039; in test [19] it was 0.818; in [20] it was 0.435. Besides, the z-score in test [7] was -0.145. In [16], the composite Z-score is inactive: 0.324.

As for `COP(=O)(/N=C1/CC(CCCO)=CC(C2CC2)N1Cc1cc2c(cc1Br)OCO2)OC` (stereo not given), the composite z-score came to 0.702 in [1]; 0.285 in [2]; 0.0843 in test [3]; 0.652 in [4]; 0.217 in test [5]; 1.7 in test [6]. The composite z-score in [8] was -0.0186; in test [9] it was 1.37; in [10], 0.847; in test [11], -0.0346; in test [12] it was 0.337; in test [13], 0.638. In addition, the composite z-score in test [14] is 1.24; in [15], 0.283; in test [17], 0.203; in test [18], 0.0474; in [19] it was 0.566; in test [20], 1.61. This molecule also displayed a z-score in test [7] of -0.979. The composite Z-score in [16] was inactive: 1.49.

Regarding `COP(=O)(/N=C1/CC(CCCO)=CC(c2ccc(CN3CCCC3)cc2)N1Cc1sc2ccccc2c1Cl)OC` (stereo not given), the composite z-score in test [1] is 1.62; in [2], 0.155; in test [3], -0.17; in [4], 0.587; in test [5] it was 1.99; in test [6], 0.956. The composite z-score in test [8] was 0.351; in test [9] it was 1.63; in test [10], 1.35; in test [11] it was 0.187; in [12], 0.976; in test [13], 1.43. Besides, the composite z-score in test [14] came out at 2.15; in test [15] it was 0.86; in [17], 0.764; in test [18], 0.243; in test [19] it was 0.608; in test [20], 0.361. Also, the z-score in test [7] is -2.19. Also, in test [16], the composite Z-score was inactive: 0.797.

`COP(=O)(/N=C1/CC(CCCO)=CC(c2ccc(CN3CCCC3)cc2)N1Cc1cccc(OC(F)(F)F)c1)OC` (stereo not given): the composite z-score is 1.39 in [1]; 1.09 in test [2]; 0.415 in test [3]; 1.24 in test [4]; 1.02 in test [5]; 1.69 in [6]. In addition, the composite z-score in test [8] turned out to be 0.376; in [9], 1.65; in [10], 1.18; in [11], 0.0438; in test [12], 0.665; in test [13], 1.36. Besides, the composite z-score was 1.42 in test [14]; 0.217 in test [15]; -0.0707 in test [17]; 0.0092 in test [18]; 0.745 in test [19]; 0.791 in [20]. The molecule further registered a z-score in [7] of -3.7. The composite Z-score in [16] is inactive: -0.391.

Regarding `COP(=O)(/N=C1/CC(c2ccc(CO)cc2)=CC(c2cccs2)N1C)OC` (stereo not given), the composite z-score in test [1] was 1.17; in [2] it was 0.12; in test [3] it was -0.642; in test [4] it was 0.133; in [5], 0.63; in test [6], 1.53. For the same molecule, the composite z-score is -0.775 in [8]; 1.6 in test [9]; 1.16 in test [10]; 0.15 in test [11]; 0.464 in test [12]; 1.14 in test [13]. The composite z-score in [14] is 0.522; in test [15] it was 0.413; in test [17], 0.333; in test [18], 0.128; in test [19], 0.732; in test [20], -0.0512. This molecule also came in with a z-score in [7] of 0.155. Further, the composite Z-score in test [16] is inactive: 0.142.

For the molecule `COP(=O)(/N=C1/CC(CCCO)=CC(c2ccc(CN3CCCC3)cc2)N1Cc1cc2c(cc1Br)OCO2)OC` (stereo not given), the composite z-score was 1.24 in test [1]; 0.49 in [2]; -0.248 in test [3]; 0.203 in test [4]; 0.843 in [5]; 1.7 in test [6]. Besides, the composite z-score in test [8] was 0.419; in test [9] it was 1.48; in test [10] it was 1.28; in test [11] it was 0.0927; in test [12] it was 0.171; in test [13], -0.193. The composite z-score in [14] was -0.182; in test [15] it was -0.541; in test [17] it was 0.601; in test [18] it was 0.306; in [19], 0.901; in test [20], 1.03. For the same molecule, in test [7], the z-score is -0.645. Besides, the composite Z-score in [16] was inactive: 0.0792.

In the case of `O=P(/N=C1/CC(CCCO)=CC(c2ccc(CN3CCCC3)cc2)N1Cc1sc2ccccc2c1Cl)(Oc1ccccc1)Oc1ccccc1` (stereo not given), the composite z-score in test [1] was -0.0155; in [2], 0.281; in [3], -0.352; in [4] it was -0.0928; in test [5], 0.199; in [6], 1.13. In addition, the composite z-score is -0.0857 in test [8]; 1.07 in test [9]; 0.292 in test [10]; -0.0192 in test [11]; 0.0893 in test [12]; 0.621 in [13]. For the same molecule, the composite z-score in test [14] is 0.61; in test [15] it was 1.06; in test [17], -0.0567; in [18] it was 0.0228; in [19], 0.821; in test [20] it was 1.6. In test [7], this molecule had a z-score of -4.09. In test [16], the composite Z-score was inactive: 0.291.
